Target: T1, CD38 (shCD38) (Homo sapiens, UniProt P28907)
T1 construct: human CD38 catalytic domain (shCD38)
Experiment: inhibition of cADPR hydrolysis, fluorimetric cycling assay
Type: biochemical
Settings: read-out: L-Ribose / IC50

By UniProt entry, the sequences of proteins in these tests, tags left out. Residues count along the entry.
UniProt P28907, 45-300 limits assumed: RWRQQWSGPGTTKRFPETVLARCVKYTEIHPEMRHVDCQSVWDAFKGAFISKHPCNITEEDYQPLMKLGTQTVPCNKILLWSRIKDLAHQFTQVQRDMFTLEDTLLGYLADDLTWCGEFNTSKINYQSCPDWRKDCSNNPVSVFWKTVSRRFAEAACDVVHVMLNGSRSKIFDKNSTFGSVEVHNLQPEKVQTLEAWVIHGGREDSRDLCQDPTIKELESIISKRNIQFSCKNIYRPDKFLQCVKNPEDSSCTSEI

IC50: 7 ± 1 µM
Structure (SMILES): O=c1c2nc(Br)n3c2ncn1[C@H]1O[C@@H](COP(=O)(O)OP(=O)(O)OC[C@H]2O[C@@H]3[C@H](O)[C@@H]2O)[C@H](O)[C@@H]1O [compound 6, 8-Br-L-cIDPR]
